Results: ChEMBL document CHEMBL2086369, “Design, synthesis, and pharmacological characterization of indol-3-ylacetamides, indol-3-yloxoacetamides, and indol-3-ylcarboxamides: potent and selective CB2 cannabinoid receptor inverse agonists” (J Med Chem, 2012)

Protein sequences, listed by entry. Tags and fused reporters are not part of them.
UniProt P21554, whole entry: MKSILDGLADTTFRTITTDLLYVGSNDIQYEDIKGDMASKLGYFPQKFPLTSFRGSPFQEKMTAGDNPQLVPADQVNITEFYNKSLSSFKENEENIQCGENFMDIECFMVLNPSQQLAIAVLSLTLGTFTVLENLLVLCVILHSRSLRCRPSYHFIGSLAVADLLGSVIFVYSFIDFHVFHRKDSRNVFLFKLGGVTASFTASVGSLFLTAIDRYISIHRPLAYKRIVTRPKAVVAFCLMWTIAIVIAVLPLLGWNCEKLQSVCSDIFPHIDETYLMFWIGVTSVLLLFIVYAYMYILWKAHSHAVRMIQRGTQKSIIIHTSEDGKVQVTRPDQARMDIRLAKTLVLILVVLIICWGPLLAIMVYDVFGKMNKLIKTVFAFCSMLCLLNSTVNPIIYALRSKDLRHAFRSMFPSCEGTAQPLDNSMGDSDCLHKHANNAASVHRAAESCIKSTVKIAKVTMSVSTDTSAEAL

Molecular target: Cannabinoid receptor 1 (Homo sapiens, UniProt P21554)
Experiment: biochemical
Type: cell-based, HEK293

## Cc1ccc(Cn2nc(C(=O)N[C@@H]3C(C)(C)[C@@H]4CC[C@@]3(C)C4)cc2-c2ccc(Cl)c(C)c2)cc1 [SR-144528]
  pKi: < 5.55

pKi: −log10 of the molar value.
